CycPeptMPDB entries from one study

Collected by the curators of CycPeptMPDB (Li et al. 2023) from Kelly et al. 2021, doi:10.1021/jacs.0c06115.

PAMPA measures passive passage through an artificial lipid membrane. Values are log10 P with P in cm/s, so -5 is more permeable than -7.

PAMPA (log10 cm/s)	structure (SMILES)
-5.89	CC(=O)N1CCC[C@@H]1C(=O)N(C)[C@@H](CC(C)C)C(=O)N[C@@H]1C(=O)N[C@@H](CC(C)C)C(=O)N[C@H](CC(C)C)C(=O)N(C)[C@H](CC(C)C)C(=O)N(C)[C@@H](C)C(=O)N[C@H](CC(C)C)C(=O)N2CCC[C@H]2C(=O)O[C@@H]1C
-5.56	CC(=O)N1CCC[C@H]1C(=O)N[C@@H]1C(=O)N(C)[C@H](CC(C)C)C(=O)N[C@H](CC(C)C)C(=O)N(C)[C@@H](CC(C)C)C(=O)N[C@@H](CC(C)C)C(=O)N(C)[C@H](C)C(=O)N[C@@H](CC(C)C)C(=O)N2CCC[C@@H]2C(=O)O[C@@H]1C
-5.93	CC(=O)N1CCC[C@@H]1C(=O)N(C)[C@@H](CC(C)C)C(=O)N[C@@H]1C(=O)N[C@H](CC(C)C)C(=O)N[C@H](CC(C)C)C(=O)N(C)[C@H](CC(C)C)C(=O)N[C@@H](C)C(=O)N[C@@H](CC(C)C)C(=O)N2CCC[C@H]2C(=O)O[C@@H]1C
-6.17	CC(=O)N1CCC[C@H]1C(=O)N[C@@H]1C(=O)N(C)[C@H](CC(C)C)C(=O)N[C@H](CC(C)C)C(=O)N[C@H](CC(C)C)C(=O)N(C)[C@@H](CC(C)C)C(=O)N[C@H](C)C(=O)N[C@@H](CC(C)C)C(=O)N2CCC[C@@H]2C(=O)O[C@@H]1C
-5.97	CC(=O)N1CCC[C@@H]1C(=O)N(C)[C@H](CC(C)C)C(=O)N[C@@H]1C(=O)N(C)[C@@H](CC(C)C)C(=O)N[C@@H](CC(C)C)C(=O)N[C@@H](CC(C)C)C(=O)N(C)[C@@H](C)C(=O)N[C@H](CC(C)C)C(=O)N2CCC[C@H]2C(=O)O[C@@H]1C
-5.67	CC(=O)N1CCC[C@@H]1C(=O)N(C)[C@@H](CC(C)C)C(=O)N[C@@H]1C(=O)N(C)[C@@H](CC(C)C)C(=O)N(C)[C@H](CC(C)C)C(=O)N(C)[C@H](CC(C)C)C(=O)N[C@@H](C)C(=O)N[C@H](CC(C)C)C(=O)N2CCC[C@@H]2C(=O)O[C@@H]1C
-6.18	CC(=O)N1CCC[C@@H]1C(=O)N(C)[C@H](CC(C)C)C(=O)N[C@@H]1C(=O)N[C@H](CC(C)C)C(=O)N(C)[C@H](CC(C)C)C(=O)N[C@H](CC(C)C)C(=O)N(C)[C@H](C)C(=O)N[C@H](CC(C)C)C(=O)N2CCC[C@@H]2C(=O)O[C@@H]1C
-5.76	CC(=O)N1CCC[C@@H]1C(=O)N(C)[C@@H](CC(C)C)C(=O)N[C@@H]1C(=O)N(C)[C@H](CC(C)C)C(=O)N[C@H](CC(C)C)C(=O)N[C@@H](CC(C)C)C(=O)N(C)[C@H](C)C(=O)N[C@@H](CC(C)C)C(=O)N2CCC[C@H]2C(=O)O[C@@H]1C
-5.20	CC(=O)N1CCC[C@H]1C(=O)N(C)[C@H](CC(C)C)C(=O)N[C@@H]1C(=O)N(C)[C@@H](CC(C)C)C(=O)N[C@@H](CC(C)C)C(=O)N(C)[C@H](CC(C)C)C(=O)N(C)[C@@H](C)C(=O)N[C@@H](CC(C)C)C(=O)N2CCC[C@H]2C(=O)O[C@@H]1C
-6.09	CC(=O)N[C@@H]1C(=O)N2CCC[C@H]2C(=O)N(C)[C@H](CC(C)C)C(=O)N[C@H](CC(C)C)C(=O)N[C@H](CC(C)C)C(=O)N(C)[C@H](CC(C)C)C(=O)N(C)[C@H](C)C(=O)N[C@@H](CC(C)C)C(=O)N2CCC[C@@H]2C(=O)O[C@@H]1C
-5.33	CC(=O)N1CCC[C@@H]1C(=O)N(C)[C@@H](CC(C)C)C(=O)N[C@@H]1C(=O)N(C)[C@@H](CC(C)C)C(=O)N[C@@H](CC(C)C)C(=O)N(C)[C@@H](CC(C)C)C(=O)N(C)[C@H](C)C(=O)N[C@H](CC(C)C)C(=O)N2CCC[C@@H]2C(=O)O[C@@H]1C
-5.86	CC(=O)N1CCC[C@H]1C(=O)N(C)[C@H](CC(C)C)C(=O)N[C@@H]1C(=O)N(C)[C@@H](CC(C)C)C(=O)N[C@H](CC(C)C)C(=O)N[C@H](CC(C)C)C(=O)N(C)[C@H](C)C(=O)N[C@H](CC(C)C)C(=O)N2CCC[C@H]2C(=O)O[C@@H]1C
-5.00	CC(=O)N1CCC[C@H]1C(=O)N[C@@H]1C(=O)N(C)[C@H](CC(C)C)C(=O)N[C@@H](CC(C)C)C(=O)N(C)[C@H](CC(C)C)C(=O)N[C@H](CC(C)C)C(=O)N(C)[C@H](C)C(=O)N[C@@H](CC(C)C)C(=O)N2CCC[C@@H]2C(=O)O[C@@H]1C
-5.23	CC(=O)N1CCC[C@H]1C(=O)N(C)[C@H](CC(C)C)C(=O)N[C@@H]1C(=O)N[C@H](CC(C)C)C(=O)N(C)[C@H](CC(C)C)C(=O)N(C)[C@@H](CC(C)C)C(=O)N(C)[C@H](C)C(=O)N[C@@H](CC(C)C)C(=O)N2CCC[C@@H]2C(=O)O[C@@H]1C
-6.06	CC(=O)N1CCC[C@H]1C(=O)N(C)[C@@H](CC(C)C)C(=O)N[C@@H]1C(=O)N(C)[C@H](CC(C)C)C(=O)N[C@H](CC(C)C)C(=O)N[C@H](CC(C)C)C(=O)N[C@H](C)C(=O)N[C@@H](CC(C)C)C(=O)N2CCC[C@H]2C(=O)O[C@@H]1C
-5.28	CC(=O)N1CCC[C@H]1C(=O)N(C)[C@H](CC(C)C)C(=O)N[C@@H]1C(=O)N(C)[C@@H](CC(C)C)C(=O)N(C)[C@H](CC(C)C)C(=O)N(C)[C@H](CC(C)C)C(=O)N(C)[C@H](C)C(=O)N[C@H](CC(C)C)C(=O)N2CCC[C@H]2C(=O)O[C@@H]1C
-6.13	CC(=O)N1CCC[C@H]1C(=O)N(C)[C@@H](CC(C)C)C(=O)N[C@@H]1C(=O)N[C@H](CC(C)C)C(=O)N[C@H](CC(C)C)C(=O)N(C)[C@H](CC(C)C)C(=O)N(C)[C@H](C)C(=O)N[C@@H](CC(C)C)C(=O)N2CCC[C@H]2C(=O)O[C@@H]1C
-6.08	CC(=O)N1CCC[C@H]1C(=O)N(C)[C@@H](CC(C)C)C(=O)N[C@@H]1C(=O)N[C@H](CC(C)C)C(=O)N[C@H](CC(C)C)C(=O)N(C)[C@@H](CC(C)C)C(=O)N(C)[C@H](C)C(=O)N[C@@H](CC(C)C)C(=O)N2CCC[C@H]2C(=O)O[C@@H]1C
-6.07	CC(=O)N1CCC[C@H]1C(=O)N[C@@H]1C(=O)N[C@H](CC(C)C)C(=O)N[C@@H](CC(C)C)C(=O)N(C)[C@@H](CC(C)C)C(=O)N[C@@H](CC(C)C)C(=O)N[C@H](C)C(=O)N[C@@H](CC(C)C)C(=O)N2CCC[C@@H]2C(=O)O[C@@H]1C
-5.80	CC(=O)N1CCC[C@H]1C(=O)N(C)[C@@H](CC(C)C)C(=O)N[C@@H]1C(=O)N(C)[C@@H](CC(C)C)C(=O)N[C@H](CC(C)C)C(=O)N(C)[C@@H](CC(C)C)C(=O)N(C)[C@@H](C)C(=O)N[C@@H](CC(C)C)C(=O)N2CCC[C@H]2C(=O)O[C@@H]1C
-5.23	CC(=O)N1CCC[C@H]1C(=O)N(C)[C@H](CC(C)C)C(=O)N[C@@H]1C(=O)N(C)[C@@H](CC(C)C)C(=O)N(C)[C@H](CC(C)C)C(=O)N(C)[C@H](CC(C)C)C(=O)N(C)[C@@H](C)C(=O)N[C@@H](CC(C)C)C(=O)N2CCC[C@H]2C(=O)O[C@@H]1C
-6.79	CC(=O)N1CCC[C@H]1C(=O)N(C)[C@H](CC(C)C)C(=O)N[C@@H]1C(=O)N[C@H](CC(C)C)C(=O)N[C@H](CC(C)C)C(=O)N[C@@H](CC(C)C)C(=O)N[C@@H](C)C(=O)N[C@@H](CC(C)C)C(=O)N2CCC[C@H]2C(=O)O[C@@H]1C
-6.47	CC(=O)N1CCC[C@@H]1C(=O)N(C)[C@H](CC(C)C)C(=O)N[C@@H]1C(=O)N[C@@H](CC(C)C)C(=O)N(C)[C@@H](CC(C)C)C(=O)N(C)[C@@H](CC(C)C)C(=O)N[C@@H](C)C(=O)N[C@H](CC(C)C)C(=O)N2CCC[C@H]2C(=O)O[C@@H]1C
-5.66	CC(=O)N1CCC[C@H]1C(=O)N(C)[C@H](CC(C)C)C(=O)N[C@@H]1C(=O)N[C@H](CC(C)C)C(=O)N(C)[C@H](CC(C)C)C(=O)N(C)[C@@H](CC(C)C)C(=O)N[C@@H](C)C(=O)N[C@@H](CC(C)C)C(=O)N2CCC[C@H]2C(=O)O[C@@H]1C

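Conditions beyond the assay type are not listed; see the original paper. Other peptides of the study may be missing here. Entries at the database's floor value (log10 P of -10) are not listed.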